One assay addresses cyclo-oxygenase (Homo sapiens, UniProt P23219). The note with it: read-out: IC50 (cyclo-oxygenase).
In a further assay the test system is Prostaglandin. The assay can be described thus: Carrageenin-impregnated sponge inflammatory exudates: prostaglandin concentration. It counts as in vivo, rat. The note with it: 50 mg/kg p.o., 24 hours. As to the method:
The sponges were removed after 24 hours, immersed in 5 ml herparinised saline and squeezed until dry.

Chains of the proteins cited; added tags and fusions are not shown. Residues count along the entry.
UniProt P23219, 24-599: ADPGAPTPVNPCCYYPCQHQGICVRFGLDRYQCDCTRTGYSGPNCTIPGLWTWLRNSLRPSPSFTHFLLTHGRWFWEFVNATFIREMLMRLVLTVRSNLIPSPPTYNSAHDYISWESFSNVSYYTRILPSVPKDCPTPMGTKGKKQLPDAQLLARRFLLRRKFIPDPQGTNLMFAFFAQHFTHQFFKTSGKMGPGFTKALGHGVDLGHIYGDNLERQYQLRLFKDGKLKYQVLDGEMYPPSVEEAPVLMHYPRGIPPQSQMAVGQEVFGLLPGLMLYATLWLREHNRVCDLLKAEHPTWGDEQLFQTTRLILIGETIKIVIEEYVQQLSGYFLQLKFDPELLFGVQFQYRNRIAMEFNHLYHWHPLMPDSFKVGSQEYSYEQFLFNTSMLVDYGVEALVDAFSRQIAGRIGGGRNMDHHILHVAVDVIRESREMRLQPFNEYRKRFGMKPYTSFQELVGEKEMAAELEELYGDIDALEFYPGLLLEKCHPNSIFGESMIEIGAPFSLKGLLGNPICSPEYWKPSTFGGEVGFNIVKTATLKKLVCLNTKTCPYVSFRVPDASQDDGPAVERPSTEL

Consider `NC1=NN(c2cccc(C(F)(F)F)c2)CC1` [Example 1, 3-Amino-1-(m-trifluoromethylphenyl)pyrazol-2-ine], for which, at cyclo-oxygenase, the half-maximal inhibitory concentration (IC50) (as a rule, the point on the concentration scale where inhibition reaches its midpoint) is 12.2 µM. Also, in the assay on Prostaglandin, the “Reduction of Prostaglandin Concentration” value came to 69%.
